pIC50: −log10 of the molar value.
Legend:
CaV2.2 = CaV2.2 (Homo sapiens, UniProt Q00975); test: High-throughput CaV2.2/Kir2.3 FLIPR fluorescent assay; assay type: cell-based; details: read-out: FLIPR data CaV2.2; Table 5; Fluo-4 FLIPR; closed or inactivated state not stated
Experimental: (§1) Cells were plated in 384-well, clear-bottom, black-walled, poly-D-lysine coated plates (Becton Dickinson, Franklin Lake, N.J.) 2 days prior to use in the FLIPR assay. 100 μL of cells (1.4×10^6 cell/mL) containing doxycyline (Sigma-Aldrich, 1.5 μg/mL; to induce channel expression) were added to each well using a Multidrop (Thermo Scientific, Waltham, Mass.) and were maintained in 5% CO2 incubator at 37° C. On the morning of the assay, cells were transferred to a 5% CO2 incubator at 29° C.
Cells were washed with a wash buffer containing (in mM): 118 NaCl, 18.4 HEPES, 11.7 D-glucose, 2 CaCl2, 0.5 MgSO4, 4.7 KCl, 1.2 KH2PO4, pH adjusted to 7.2 with NaOH. […]
Concentration-dependent response curves were generated from 5 mM stock solutions prepared in DMSO (Sigma-Aldrich) and diluted in either the 2 mM KCl buffer or 12.5 mM KCl buffer and incubated for 20 minutes at 29° C. in 5% CO2. […] A change in the Fluo-4 fluorescence signal was assessed using FLIPR^TETRA™ instrument (Molecular Devices, Sunnyvale, Calif.) for 3 minutes following the elevation of extracellular KCl using an illumination wavelength of 470-495 nm with emissions recorded at 515-575 nm. […]
(§2) To assess the quality of the FLIPR assays the Z-factor (2) was used to quantify the suitability of the assay conditions using the following equation: […]
(§3) Data are expressed as mean and standard deviation (SD).

Chains of the proteins cited; added tags and fusions are not shown. Residues count along the entry.
UniProt Q00975, whole entry: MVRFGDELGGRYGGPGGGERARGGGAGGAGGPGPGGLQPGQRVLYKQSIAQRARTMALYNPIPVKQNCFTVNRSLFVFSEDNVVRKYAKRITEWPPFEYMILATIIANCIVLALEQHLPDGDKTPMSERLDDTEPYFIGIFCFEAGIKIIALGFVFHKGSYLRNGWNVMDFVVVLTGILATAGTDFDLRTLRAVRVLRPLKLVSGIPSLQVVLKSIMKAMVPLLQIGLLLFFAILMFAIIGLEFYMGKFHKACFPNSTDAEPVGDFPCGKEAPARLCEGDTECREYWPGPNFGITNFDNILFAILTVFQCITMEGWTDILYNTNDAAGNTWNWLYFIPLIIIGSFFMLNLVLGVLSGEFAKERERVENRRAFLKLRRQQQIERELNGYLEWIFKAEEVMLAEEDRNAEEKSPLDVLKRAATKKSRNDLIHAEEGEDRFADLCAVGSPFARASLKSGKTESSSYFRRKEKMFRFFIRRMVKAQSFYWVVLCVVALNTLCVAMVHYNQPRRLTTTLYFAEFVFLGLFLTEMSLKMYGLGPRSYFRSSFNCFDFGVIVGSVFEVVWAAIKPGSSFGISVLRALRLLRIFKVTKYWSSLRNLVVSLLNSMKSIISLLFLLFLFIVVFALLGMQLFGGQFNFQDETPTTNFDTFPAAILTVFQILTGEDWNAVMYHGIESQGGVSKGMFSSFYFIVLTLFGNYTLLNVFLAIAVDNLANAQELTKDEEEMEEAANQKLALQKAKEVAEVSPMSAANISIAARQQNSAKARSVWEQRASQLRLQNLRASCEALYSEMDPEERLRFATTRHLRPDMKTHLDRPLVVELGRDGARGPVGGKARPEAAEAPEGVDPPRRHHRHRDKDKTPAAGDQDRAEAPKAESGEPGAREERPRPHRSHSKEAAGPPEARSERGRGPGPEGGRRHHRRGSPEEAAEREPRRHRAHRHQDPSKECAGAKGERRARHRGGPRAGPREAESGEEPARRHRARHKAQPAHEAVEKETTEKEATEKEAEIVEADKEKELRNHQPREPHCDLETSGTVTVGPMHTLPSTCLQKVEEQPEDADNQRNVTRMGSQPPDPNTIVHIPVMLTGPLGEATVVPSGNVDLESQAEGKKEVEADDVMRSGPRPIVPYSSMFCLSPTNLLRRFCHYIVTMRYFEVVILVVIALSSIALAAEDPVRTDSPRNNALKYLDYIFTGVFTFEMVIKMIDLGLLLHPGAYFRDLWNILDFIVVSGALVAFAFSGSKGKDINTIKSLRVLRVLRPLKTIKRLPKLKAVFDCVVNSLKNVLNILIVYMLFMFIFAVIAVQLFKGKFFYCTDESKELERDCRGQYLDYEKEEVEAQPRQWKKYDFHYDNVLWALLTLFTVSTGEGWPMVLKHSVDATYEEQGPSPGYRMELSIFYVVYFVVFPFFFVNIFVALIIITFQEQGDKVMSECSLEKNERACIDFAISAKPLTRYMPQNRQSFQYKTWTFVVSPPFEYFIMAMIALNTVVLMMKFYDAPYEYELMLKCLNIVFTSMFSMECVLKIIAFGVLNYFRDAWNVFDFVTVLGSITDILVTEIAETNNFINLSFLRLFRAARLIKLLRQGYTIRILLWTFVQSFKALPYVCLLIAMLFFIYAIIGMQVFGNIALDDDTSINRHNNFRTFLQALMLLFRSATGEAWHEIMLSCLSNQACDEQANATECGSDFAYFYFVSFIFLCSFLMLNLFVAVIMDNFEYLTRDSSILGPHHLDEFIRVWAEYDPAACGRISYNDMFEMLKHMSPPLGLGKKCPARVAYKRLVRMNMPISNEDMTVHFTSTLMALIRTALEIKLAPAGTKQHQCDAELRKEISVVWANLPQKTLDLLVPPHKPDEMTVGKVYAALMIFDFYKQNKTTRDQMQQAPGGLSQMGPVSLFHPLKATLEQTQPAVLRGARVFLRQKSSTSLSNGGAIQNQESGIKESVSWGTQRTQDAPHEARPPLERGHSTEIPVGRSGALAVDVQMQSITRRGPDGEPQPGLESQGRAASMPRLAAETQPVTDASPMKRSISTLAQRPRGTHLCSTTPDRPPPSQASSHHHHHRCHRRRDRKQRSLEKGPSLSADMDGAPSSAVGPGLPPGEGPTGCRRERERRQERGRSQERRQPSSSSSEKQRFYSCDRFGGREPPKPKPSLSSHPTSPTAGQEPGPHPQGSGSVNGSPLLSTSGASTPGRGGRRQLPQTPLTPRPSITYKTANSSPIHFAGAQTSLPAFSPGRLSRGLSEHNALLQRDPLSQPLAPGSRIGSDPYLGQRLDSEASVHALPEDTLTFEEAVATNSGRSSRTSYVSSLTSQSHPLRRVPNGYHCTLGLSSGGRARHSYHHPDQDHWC
UniProt O95180, whole entry: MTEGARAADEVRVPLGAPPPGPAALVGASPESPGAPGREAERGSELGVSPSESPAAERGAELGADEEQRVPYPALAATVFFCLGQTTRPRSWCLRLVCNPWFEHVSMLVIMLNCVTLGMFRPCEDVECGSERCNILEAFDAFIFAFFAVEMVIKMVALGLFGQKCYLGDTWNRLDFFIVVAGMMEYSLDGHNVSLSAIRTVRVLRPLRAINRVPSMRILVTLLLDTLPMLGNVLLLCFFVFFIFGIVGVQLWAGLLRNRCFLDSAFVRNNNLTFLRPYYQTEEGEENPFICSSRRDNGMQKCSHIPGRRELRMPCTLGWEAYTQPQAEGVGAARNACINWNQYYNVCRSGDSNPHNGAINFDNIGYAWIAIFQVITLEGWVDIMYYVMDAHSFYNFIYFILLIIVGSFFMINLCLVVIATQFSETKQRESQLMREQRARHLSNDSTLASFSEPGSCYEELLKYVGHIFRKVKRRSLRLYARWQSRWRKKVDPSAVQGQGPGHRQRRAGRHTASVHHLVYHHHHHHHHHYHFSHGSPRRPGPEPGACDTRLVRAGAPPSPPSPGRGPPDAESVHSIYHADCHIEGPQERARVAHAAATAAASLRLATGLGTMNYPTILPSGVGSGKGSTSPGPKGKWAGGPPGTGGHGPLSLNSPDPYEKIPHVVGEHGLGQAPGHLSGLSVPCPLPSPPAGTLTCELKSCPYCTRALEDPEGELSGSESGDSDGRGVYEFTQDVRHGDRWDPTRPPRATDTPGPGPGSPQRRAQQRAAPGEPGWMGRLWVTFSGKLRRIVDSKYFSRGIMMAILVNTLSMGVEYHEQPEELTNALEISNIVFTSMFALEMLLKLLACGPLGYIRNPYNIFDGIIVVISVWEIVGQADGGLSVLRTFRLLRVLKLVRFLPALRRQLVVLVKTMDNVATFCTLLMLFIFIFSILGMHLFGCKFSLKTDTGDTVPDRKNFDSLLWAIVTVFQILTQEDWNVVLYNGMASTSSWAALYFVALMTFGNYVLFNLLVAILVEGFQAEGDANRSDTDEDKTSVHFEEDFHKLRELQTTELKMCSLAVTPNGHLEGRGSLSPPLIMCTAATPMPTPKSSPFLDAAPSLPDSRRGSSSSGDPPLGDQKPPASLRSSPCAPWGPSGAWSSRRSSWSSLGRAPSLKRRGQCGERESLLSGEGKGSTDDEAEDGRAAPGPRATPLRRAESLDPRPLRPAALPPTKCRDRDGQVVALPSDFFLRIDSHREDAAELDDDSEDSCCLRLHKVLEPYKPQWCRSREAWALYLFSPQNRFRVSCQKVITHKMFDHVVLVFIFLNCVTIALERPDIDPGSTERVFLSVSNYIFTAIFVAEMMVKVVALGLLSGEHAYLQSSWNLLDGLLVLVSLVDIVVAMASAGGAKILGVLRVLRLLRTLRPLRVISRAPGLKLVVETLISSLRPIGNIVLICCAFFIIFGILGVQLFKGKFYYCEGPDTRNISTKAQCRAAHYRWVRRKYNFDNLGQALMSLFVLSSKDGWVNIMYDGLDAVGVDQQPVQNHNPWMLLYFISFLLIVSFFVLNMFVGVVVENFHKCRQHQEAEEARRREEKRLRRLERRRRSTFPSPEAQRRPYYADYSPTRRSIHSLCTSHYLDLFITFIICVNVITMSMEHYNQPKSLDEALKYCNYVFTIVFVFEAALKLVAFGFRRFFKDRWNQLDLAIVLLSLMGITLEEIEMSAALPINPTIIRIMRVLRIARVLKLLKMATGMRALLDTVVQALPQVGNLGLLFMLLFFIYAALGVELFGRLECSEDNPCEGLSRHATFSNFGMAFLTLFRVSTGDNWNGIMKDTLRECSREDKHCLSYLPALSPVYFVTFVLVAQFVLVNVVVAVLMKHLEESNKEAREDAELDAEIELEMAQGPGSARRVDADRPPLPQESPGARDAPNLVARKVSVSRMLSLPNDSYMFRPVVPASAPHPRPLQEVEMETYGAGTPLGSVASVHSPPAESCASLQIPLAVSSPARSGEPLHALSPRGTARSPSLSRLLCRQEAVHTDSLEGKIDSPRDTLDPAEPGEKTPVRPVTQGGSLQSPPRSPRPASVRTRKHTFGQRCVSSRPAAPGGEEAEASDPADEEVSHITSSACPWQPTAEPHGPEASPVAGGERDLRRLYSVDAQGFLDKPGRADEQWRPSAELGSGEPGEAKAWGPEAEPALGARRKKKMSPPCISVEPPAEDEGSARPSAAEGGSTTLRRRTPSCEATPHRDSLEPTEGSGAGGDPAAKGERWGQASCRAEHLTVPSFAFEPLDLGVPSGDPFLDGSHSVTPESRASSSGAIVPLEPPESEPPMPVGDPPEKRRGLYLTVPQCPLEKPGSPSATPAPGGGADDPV
UniProt P54289, 25-946 partner limits assumed: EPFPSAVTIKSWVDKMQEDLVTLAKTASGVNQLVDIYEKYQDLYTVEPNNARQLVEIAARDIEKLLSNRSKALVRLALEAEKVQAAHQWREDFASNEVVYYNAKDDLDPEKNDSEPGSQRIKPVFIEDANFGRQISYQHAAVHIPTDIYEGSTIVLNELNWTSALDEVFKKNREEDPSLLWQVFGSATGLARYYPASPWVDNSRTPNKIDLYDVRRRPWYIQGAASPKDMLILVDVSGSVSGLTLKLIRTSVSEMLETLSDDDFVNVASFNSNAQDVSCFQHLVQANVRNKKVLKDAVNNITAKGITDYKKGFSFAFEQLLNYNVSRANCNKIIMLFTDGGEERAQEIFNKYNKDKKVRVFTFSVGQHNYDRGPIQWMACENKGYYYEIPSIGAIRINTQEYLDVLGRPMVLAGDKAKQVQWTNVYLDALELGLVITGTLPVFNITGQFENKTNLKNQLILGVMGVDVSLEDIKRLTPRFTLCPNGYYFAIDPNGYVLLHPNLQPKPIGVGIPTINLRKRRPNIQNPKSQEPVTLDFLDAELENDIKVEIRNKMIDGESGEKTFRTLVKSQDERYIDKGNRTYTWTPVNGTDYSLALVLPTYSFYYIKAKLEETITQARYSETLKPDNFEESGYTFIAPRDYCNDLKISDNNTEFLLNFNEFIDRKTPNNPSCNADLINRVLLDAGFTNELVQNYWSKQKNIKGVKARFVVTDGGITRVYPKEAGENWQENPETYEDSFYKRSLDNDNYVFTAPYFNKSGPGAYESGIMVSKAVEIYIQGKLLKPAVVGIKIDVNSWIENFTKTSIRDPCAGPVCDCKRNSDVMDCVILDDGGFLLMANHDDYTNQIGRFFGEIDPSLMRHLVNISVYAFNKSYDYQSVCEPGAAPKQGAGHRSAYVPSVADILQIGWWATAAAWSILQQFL
UniProt P54289, 947-1103 partner limits assumed: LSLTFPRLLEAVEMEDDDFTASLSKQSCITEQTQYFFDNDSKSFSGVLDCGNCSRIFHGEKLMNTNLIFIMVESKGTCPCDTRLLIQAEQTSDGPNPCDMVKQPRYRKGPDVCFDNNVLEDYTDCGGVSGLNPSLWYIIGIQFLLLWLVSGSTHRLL
UniProt P54284, whole entry partner: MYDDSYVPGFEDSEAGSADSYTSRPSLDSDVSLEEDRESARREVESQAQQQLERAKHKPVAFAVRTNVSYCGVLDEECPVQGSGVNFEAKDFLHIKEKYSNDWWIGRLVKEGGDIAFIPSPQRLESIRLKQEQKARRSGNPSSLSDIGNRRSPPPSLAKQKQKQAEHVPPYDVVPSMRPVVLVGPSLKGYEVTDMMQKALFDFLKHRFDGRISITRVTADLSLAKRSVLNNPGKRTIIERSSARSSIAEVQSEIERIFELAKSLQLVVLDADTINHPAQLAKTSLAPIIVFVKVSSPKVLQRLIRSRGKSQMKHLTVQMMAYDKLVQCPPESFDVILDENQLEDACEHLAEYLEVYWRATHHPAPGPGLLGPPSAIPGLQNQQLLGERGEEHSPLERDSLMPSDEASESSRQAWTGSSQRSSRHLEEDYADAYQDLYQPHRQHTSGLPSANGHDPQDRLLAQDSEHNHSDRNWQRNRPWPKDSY

CaV3.2 = CaV3.2 (Homo sapiens, UniProt O95180); test: High-throughput CaV3.2/Kir2.3 T-type FLIPR fluorescent assay; assay type: cell-based; details: read-out: FLIPR data CaV3.2; Table 5; Fluo-4 FLIPR; closed or inactivated state not stated
Experimental: as §1, with “µL” for “μL”, “(1.2×10^6” for “(1.4×10^6”
Cells were washed with a wash buffer containing (in mM): 118 NaCl, 18.4 HEPES, 11.7 D-glucose, 2 CaCl2, 0.5 MgSO4, 4.7 KCl, and 1.2 KH2PO4, with the pH adjusted to 7.2 with
NaOH. 4.4 μM of the fluorescent indicator dye Fluo-4 (Invitrogen) prepared in pluronic acid (Sigma-Aldrich) was loaded into the wells and incubated for 45 minutes at 29° C. in 5% CO2. […] A change in the Fluo-4 fluorescence signal was assessed using FLIPR^TETRA™ instrument (Molecular Devices, Sunnyvale, Calif.) for 3 minutes following the elevation of extracellular KCl using an illumination wavelength of 470-495 nm with emissions recorded at 515-575 nm. […]
as §2, §3

Compound: CC(C)(CCNC(=O)c1cn2cc(C(F)(F)F)ccc2n1)S(=O)(=O)c1cccc(C(F)(F)F)c1
- pIC50 (CaV2.2): 6.42
- pIC50 (CaV3.2): 5.08

— patent US20140113898A1, “BISARYLSULFONE AND DIALKYLARYLSULFONE COMPOUNDS AS CALCIUM CHANNEL BLOCKERS” (Zalicus Pharmaceuticals Ltd., priority 2010, published 2014)
